Results: PubChem BioAssay (NCI)
Several values for one entry are separate records, joined by “and”; a condition that tells them apart may be missing. Equal entries are not always repeated. The list shows a part of the results, in another mix than the full data. Activity calls are given as the source filed them. Rule as the data show it: active = growth inhibition above about 70%; inactive = the rest.

Tests used:
[1] = NCI Yeast Anticancer Drug Screen. Data for the rad50 strain (AID 155);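 also: 0% = growth of vehicle-only cultures of the same strain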; settings: S. cerevisiae rad50 strain growth inhibition; at 50.0 µM; stronger effect = higher value
[2] = NCI Yeast Anticancer Drug Screen. Data for the mec2-1 strain (AID 157); settings: S. cerevisiae mec2-1 strain, at 50.0 µM, stronger effect = higher value
[3] = NCI Yeast Anticancer Drug Screen. Data for the sgs1 mgt1 strain (AID 161);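 also: 0% = growth of cultures given vehicle only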; settings: S. cerevisiae sgs1 mgt1 strain, at 50.0 µM, stronger effect = higher value
[4] = NCI Yeast Anticancer Drug Screen. Data for the cln2 rad14 strain (AID 165);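 also: 0% = growth equal to vehicle treated cultures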; settings: S. cerevisiae cln2 rad14 strain, at 50.0 µM, stronger effect = higher value
[5] = NCI Yeast Anticancer Drug Screen. Data for the bub3 strain (AID 167); settings: S. cerevisiae bub3 mutant strain, at 50.0 µM, stronger effect = higher value
[6] = NCI Yeast Anticancer Drug Screen. Data for the mlh1 rad18 strain (AID 175); settings: S. cerevisiae mlh1 rad18 strain growth inhibition; at 50.0 µM; stronger effect = higher value

Measured: growth inhibition

CC[C@H](C)[C@@H]1NC(=O)/C(=C(\C)O)C1=O
inactive: [1] 14.2% | [2] 1.75% | [3] 6.95% | [4] 13.4% | [5] 4.8% | [6] -2.85%

CCN(CCCl)c1ccc(CCN)cc1
inactive: [1] -3.45% | [2] -10.3% | [3] 0.95% | [4] 14% | [5] 2.4% | [6] 2.25%

COc1cccc([N+](=O)[O-])c1[N+](=O)[O-]
inactive: [1] 21.8% | [2] -28.6% | [3] -11.2% | [4] -2.65% | [5] 4.05% | [6] 17.2%

[N-]=[N+]=NC/C(N)=N/O
inactive: [1] 6.4% | [2] -7.6% | [3] 7.15% | [4] 3.1% | [5] 4.9% | [6] -29.4%

CC1(C)OCC(COP(=O)(Oc2ccccc2)N(CCCl)CCCl)O1 (stereo unspecified)
inactive: [1] 14.2% | [2] -12.1% | [3] 3.9% | [4] -4.85% | [5] 9.85% | [6] -0.4%

NC(=O)Nc1ccc(N(CCCl)CCCl)cc1
inactive: [1] 9.45% | [2] -2.95% | [3] -20.4% | [4] -12.6% | [5] -26.4% | [6] -13.2%

NC(=O)CNc1ccc([As](=O)(O)O)cc1
inactive: [1] 7.1% and -5.5% | [2] 16.6% and -5% | [3] 2.9% and 11.2% | [4] -3.15% and -38.4% | [5] 13.7% and 18% | [6] -17.8% and -1.5%

O=[N+]([O-])c1ccc(N(CCS)c2ccc([N+](=O)[O-])cc2[N+](=O)[O-])c([N+](=O)[O-])c1
inactive: [1] -14.8% | [2] -17.9% | [3] -13.2% | [4] 5.6% | [5] -14.9% | [6] -10.9%

CC(CO)COP(=O)(N(CCCl)CCCl)N1CC1 (stereo unspecified)
inactive: [1] 1.8% | [2] -2.75% | [3] -18.4% | [4] 4.1% | [5] 2.05% | [6] 13.6%

CN(C)CCCOC(=O)C(O)(Cc1ccccc1)c1cccc2c1OC(C)(C)C2 (stereo unspecified)
inactive: [1] -20.5% | [2] -10.7% | [3] 7.85% | [4] 20% | [5] 2.2% | [6] -14.3%

NP(=O)(OCCCCO)N(CCCl)CCCl (stereo unspecified)
inactive: [1] 10.2% | [2] 8.9% | [3] 9.4% | [4] -6.1% | [5] 8.5% | [6] 18.8%

O=P1(Nc2ncccn2)OC(CCl)=NC1c1ccc(C2N=C(CCl)OP2(=O)Nc2ncccn2)cc1 (stereo unspecified)
inactive: [1] 20% | [2] -7% | [3] -3.2% | [4] -10.1% | [5] 8.6% | [6] 5.7%

CC(=O)NC1C(O)OC(CS[As](C)C)C(O)C1O (stereo unspecified)
inactive: [1] 10.2% | [2] 3.85% | [3] -7.55% | [4] -8.9% | [5] 4.75% | [6] -35.4%

CCC(O)(C(=O)OCC1=CC[N+]2([O-])CC[C@@H](OC(=O)Nc3ccccc3)C12)c1ccc(Cl)cc1 (stereo partly specified)
active: [2] 83.5% | [3] 75.5% | [4] 77.2% | [6] 77.8%
inactive: [1] 64.5% | [5] 40.3%

CC(C(=O)NNc1ccc([N+](=O)[O-])cc1[N+](=O)[O-])C(O)C(C)C(=O)NNc1ccc([N+](=O)[O-])cc1[N+](=O)[O-] (stereo unspecified)
inactive: [1] 35% | [2] 7.05% | [3] 28.3% | [4] 14.8% | [5] 1.15% | [6] 15.9%

CC(=O)N(CCCl)CCCl
inactive: [1] 0.1% | [2] 10.3% | [3] 11.2% | [4] -38.4% | [5] -46.7% | [6] 7.4%

CCc1cccc2ccc(N(CCBr)CCBr)cc12
inactive: [1] -6.85% | [2] -18.8% | [3] 17.7% | [4] 45% | [5] 5.9% | [6] 32.7%

Nc1ncnc2nc(/N=N\N(CCCl)CCCl)[nH]c12
inactive: [1] -9.25% | [2] -12.4% | [3] -0.4% | [4] -36.6% | [5] 20.1% | [6] -6.95%

O=C(O)C(CCS)N(c1ccc([N+](=O)[O-])cc1[N+](=O)[O-])c1ccc([N+](=O)[O-])cc1[N+](=O)[O-] (stereo unspecified)
inactive: [1] -4.55% | [2] 4.3% | [3] -5.25% | [4] -8.5% | [5] -0.8% | [6] -20.6%

CC(C)CO[P+](=O)OCC(C)C
inactive: [1] -5% | [2] -6.85% | [3] 20.6% | [4] 7.55% | [5] 7.6% | [6] 0.55%

CC1(CCl)COP(=O)(n2ccnc2)OC1 (stereo unspecified)
inactive: [1] -16.7% | [2] -12.2% | [3] -7.05% | [4] -37% | [5] -18.2% | [6] -26.9%

CCOP1OCC(C)O1 (stereo unspecified)
inactive: [1] 15.2% | [2] -0.85% | [3] 10.3% | [4] -4.4% | [5] -20.2% | [6] 27.8%

COc1cc([N+](=O)[O-])c([N+](=O)[O-])cc1OC
inactive: [1] 24.8% | [2] -4.1% | [3] 12.4% | [4] -8.7% | [5] 0.35% | [6] 31.5%

O=P1(N(CCCl)CCCl)OCC(CCl)O1 (stereo unspecified)
inactive: [1] 4.7% | [2] 7.3% | [3] 0.85% | [4] 10.9% | [5] -0.85% | [6] 7.4%

NC(=S)NP(=O)(NC(N)=S)NC(N)=S
inactive: [1] -19.3% | [2] -1.8% | [3] -7% | [4] -48.2% | [5] 7.05% | [6] -15.3%

C[C@H]1OC[C@@H](CN(C)CCCl)O1
inactive: [1] 34.3% | [2] 31.1% | [3] 41.5% | [4] -22% | [5] 30.6% | [6] 40.1%

O=c1c2ccccc2c(=O)n2n1P(Cl)CP2Cl (stereo unspecified)
inactive: [1] 5% | [2] -4.6% | [3] -4.7% | [4] -5.5% | [5] 7.2% | [6] -12.5%

O=P(NC(=S)Nc1ccccc1)(NC(=S)Nc1ccccc1)N(CCCl)CCCl
inactive: [1] -15.4% | [2] -1.65% | [3] -16.2% | [4] 39.9% | [5] -1.1% | [6] -3.55%

CN1CC[O][Ge]2([O]CC1)[O]C(=O)C(c1ccccc1)(c1ccccc1)[O]2
inactive: [1] -11.2% | [2] 2.7% | [3] 10% | [4] 19.6% | [5] -7.55% | [6] -4.4%

CN=P(c1ccccc1)(c1ccccc1)c1ccccc1
inactive: [1] 47.2% | [2] 11.1% | [3] 40.3% | [4] 0.25% | [5] -5.75% | [6] -9.85%

C[Si](C)(C)CCCNCCCl
inactive: [1] 45.5% | [2] 22.3% | [3] 24.9% | [4] 30.6% | [5] 41.2% | [6] 47.8%

CC(C)(C)C1CC(C(F)(F)F)(C(F)(F)F)OP(=O)(Cl)O1 (stereo unspecified)
inactive: [1] -5.3% | [2] 9.85% | [3] 7.2% | [4] 4.8% | [5] 5.75% | [6] -0.5%

O=C(O)C(CCCNc1ccc([N+](=O)[O-])cc1[N+](=O)[O-])Nc1ccc([N+](=O)[O-])cc1[N+](=O)[O-] (stereo unspecified)
inactive: [1] 42.4% | [2] 13.6% | [3] 43.7% | [4] 22% | [5] 5.65% | [6] 40%

CN(C)NC(=O)NP(=O)(NC(=O)NN(C)C)NC(=O)NN(C)C
inactive: [1] -5.85% | [2] 9.4% | [3] 10.3% | [4] -4% | [5] 10% | [6] -0.25%

CN1C(C)(C)C(Br)C(=O)C(Br)C1(C)C (stereo unspecified)
inactive: [1] -4% | [2] -12% | [3] -5.05% | [4] 1.25% | [5] 2.4% | [6] 2.75%

O=C(Nc1cc([N+](=O)[O-])cc([N+](=O)[O-])c1)c1cc([N+](=O)[O-])cc([N+](=O)[O-])c1
inactive: [1] -11.8% | [2] 2.7% | [3] 7.8% | [4] -5.1% | [5] -1.45% | [6] 16.1%

O=[N+]([O-])c1cccc(/C=N/Nc2ccc([N+](=O)[O-])cc2[N+](=O)[O-])c1
inactive: [1] -15.8% | [2] -23.1% | [3] -4.75% | [4] -42.1% | [5] 4.65% | [6] -16.1%

C=C1N2CCC(CC2)C1(OC(=O)CC)c1ccccc1 (stereo unspecified)
inactive: [1] -3.6% | [2] 4.4% | [3] -5.55% | [4] -5.15% | [5] -5% | [6] -5.4%

CC1(C)NC(C)(C)C(Br)C(=O)C1Br (stereo unspecified)
inactive: [1] -14.4% | [2] -11.2% | [3] 13.2% | [4] 4.65% | [5] -1.8% | [6] 2.7%

COP(=O)(OC)N(C)[Si](C)(C)C
inactive: [1] -43.6% | [2] -42.1% | [3] -33.2% | [4] -1.35% | [5] -19.6% | [6] -18.6%

O=[As](O)(O)c1ccc(Cl)cc1
inactive: [1] 22.6% | [2] -9.95% | [3] 0.7% | [4] 2.7% | [5] -53.2% | [6] -19.8%
